# From PubChem BioAssay AID624168 (Sanford-Burnham Center for Chemical Genomics, 2012)
# The list shows a part of the results, in another mix than the full data. Some results for these compounds are left out of this collection, so the calls shown say nothing about other tests. Active and inactive are the calls of the source.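 How the source made its calls: active means activation of at least 8% versus controls, or a plate z-score of at least 8; inactive means the rest.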
# Assay: compounds raising alpha-dystroglycan glycosylation – uHTS, Pro5-aDG cells, AlphaScreen, primary screen (AID 624168);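 further: Pro5 are CHO cells carrying HIG-tagged alpha-DG that lacks glycosylation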
# Conditions: alpha-DG glycosylation AlphaScreen (IIH6), at 10 µM, stronger effect = higher value, 0% Pro5, 100% B10-LARGE cell signal
row,Compound,activation
1,C=CCN1CCN(CCOC(=O)C(O)(c2ccccc2)c2ccccc2)CC1,inactive: 0.8%
2,O=C(NCC1(N2CCCCC2)CCCCC1)c1cc(F)c(F)cc1Cl,inactive: 0%
3,COc1ccc(C(=O)NCC2(N(C)C)CCCCC2)cc1,inactive: 0%
4,Cc1cc(C(=O)NCC2(N3CCCCC3)CCCCC2)ccc1[N+](=O)[O-],inactive: -0.1%
5,CCN1CCCC(OC(=O)C2(O)c3ccccc3C=Cc3ccccc32)C1 (stereo unspecified),inactive: 0.2%
6,O=C(NCC1(N2CCCCC2)CCCCC1)c1cccc(Br)c1,inactive: 0%
7,Cc1ccccc1C(=O)NCC1(N2CCCCC2)CCCCC1,inactive: -0.1%
8,CN(C)C1CCCC1OC(=O)C(O)(c1ccccc1)c1ccccc1 (stereo unspecified),inactive: -0.3%
9,CN(C)c1ccc(C(=O)NCC2(N(C)C)CCCCC2)cc1,inactive: -0.1%
10,CCN(CC)CC(C)C(C)OC(=O)C(O)(c1ccccc1)c1ccccc1 (stereo unspecified),inactive: 0%
11,COc1cc(SC)ccc1C(=O)NCC1(N(C)C)CCCCC1,inactive: -0.1%
12,CC(C)N1C(=O)CC2(CCN(CCOC(=O)C(O)(c3ccccc3)c3ccccc3)CC2)C1=O,inactive: -0.1%
13,Cc1ccc(C(=O)NCC2(N3CCCCC3)CCCCC2)cc1,inactive: -0.2%
14,O=C(NCC1(N2CCCCC2)CCCCC1)c1cc([N+](=O)[O-])ccc1Cl,inactive: 0%
15,CN1[C@@H]2CC[C@H]1CC(OC(=O)C(O)(c1ccccc1)c1ccccc1)C2 (stereo partly specified),inactive: 0%
16,C=C(C)C#CC(O)(C(=O)OC1CCN(C)CC1)c1ccccc1 (stereo unspecified),inactive: 0.2%
17,COc1ccc(Br)c(C(=O)NCC2(N3CCCCC3)CCCCC2)c1,inactive: 0.1%
18,CC(C)Oc1ccc(C(=O)NCC2(N(C)C)CCCCC2)cc1,inactive: 0%
19,O=C(OCCN1CCCC1)C(O)(c1ccccc1)c1ccccc1,inactive: 0.1%
20,CN(C)c1cccc(C(=O)NCC2(N(C)C)CCCCC2)c1,inactive: -0.3%
21,O=C(OC1CN2CCC1CC2)C(CO)(c1ccccc1)c1ccccc1 (stereo unspecified),inactive: -0.1%
22,COc1cccc(C(=O)NCC2(N3CCCCC3)CCCCC2)c1,inactive: -0.2%
23,COc1ccc(Cl)cc1C(=O)NCC1(N(C)C)CCCCC1,inactive: 0.1%
24,O=C(NCC1(N2CCCCC2)CCCCC1)c1cccc(Cl)c1,inactive: -0.1%
25,CN(C)C1(CNC(=O)c2ccc(Br)cc2)CCCCC1,inactive: -0.1%
26,COc1cc(C(=O)NCC2(N(C)C)CCCCC2)c([N+](=O)[O-])cc1OC,inactive: -0.1%
